Assay results reported in ChEMBL document CHEMBL1136508, “[3H]-methoxymethyl-MTEP and [3H]-methoxy-PEPy: potent and selective radioligands for the metabotropic glutamate subtype 5 (mGlu5) receptor” (Bioorg Med Chem Lett, 2003).
pIC50: −log10 of the molar value.

By UniProt entry, the sequences of proteins in these tests, tags left out.
UniProt P31424, whole entry: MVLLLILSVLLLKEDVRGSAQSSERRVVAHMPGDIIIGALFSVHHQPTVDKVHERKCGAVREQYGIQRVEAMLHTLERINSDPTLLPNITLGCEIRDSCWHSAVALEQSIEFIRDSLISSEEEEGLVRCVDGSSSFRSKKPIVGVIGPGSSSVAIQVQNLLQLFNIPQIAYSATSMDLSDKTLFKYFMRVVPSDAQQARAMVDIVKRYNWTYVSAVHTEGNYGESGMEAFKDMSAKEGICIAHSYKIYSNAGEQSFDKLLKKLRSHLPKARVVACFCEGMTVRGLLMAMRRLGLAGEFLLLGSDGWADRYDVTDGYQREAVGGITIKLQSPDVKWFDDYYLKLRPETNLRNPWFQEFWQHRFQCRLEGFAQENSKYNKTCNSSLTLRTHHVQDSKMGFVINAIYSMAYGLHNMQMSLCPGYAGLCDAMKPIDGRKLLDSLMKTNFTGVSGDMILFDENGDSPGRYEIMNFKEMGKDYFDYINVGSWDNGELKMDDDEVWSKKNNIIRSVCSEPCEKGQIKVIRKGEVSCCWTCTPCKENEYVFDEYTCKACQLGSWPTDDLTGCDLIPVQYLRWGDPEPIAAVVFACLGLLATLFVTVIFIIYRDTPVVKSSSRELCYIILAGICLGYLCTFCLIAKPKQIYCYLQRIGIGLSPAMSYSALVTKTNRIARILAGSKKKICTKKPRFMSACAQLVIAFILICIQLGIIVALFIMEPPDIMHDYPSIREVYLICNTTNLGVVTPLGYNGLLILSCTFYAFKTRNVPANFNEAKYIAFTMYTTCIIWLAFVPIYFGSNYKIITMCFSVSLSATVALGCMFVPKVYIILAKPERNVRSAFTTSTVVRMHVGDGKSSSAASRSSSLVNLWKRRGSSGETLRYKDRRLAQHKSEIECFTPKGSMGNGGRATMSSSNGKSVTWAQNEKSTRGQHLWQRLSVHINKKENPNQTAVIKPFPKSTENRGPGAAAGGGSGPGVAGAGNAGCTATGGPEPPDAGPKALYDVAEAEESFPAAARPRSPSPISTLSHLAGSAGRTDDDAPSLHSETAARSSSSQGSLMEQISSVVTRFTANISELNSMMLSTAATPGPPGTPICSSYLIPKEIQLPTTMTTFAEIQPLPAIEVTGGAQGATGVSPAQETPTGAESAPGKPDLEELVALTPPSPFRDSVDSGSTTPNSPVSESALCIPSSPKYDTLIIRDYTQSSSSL

Biological target: Metabotropic glutamate receptor 5 (Rattus norvegicus, UniProt P31424)
Test: Binding affinity towards mGlu5 receptors in rat brain membranes was evaluated
Assay type: cell membranes
In short: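 Displacement of [3H]-methoxy-PEPy (specific activity 67.6 Ci/mmol) binding to rat brain membranes, incubated at room temperature (equilibrium within 60 min). Nonspecific binding was defined with an unlabelled mGlu5 antagonist as cold displacer. Concentration–response curves gave IC50 values.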

Cc1cccc(C#Cc2ccccc2)n1
pIC50: 7.70
